Assay results published in publication PMC6930500, “Structure–Activity Relationships of 7-Substituted Dimethyltyrosine-Tetrahydroisoquinoline Opioid Peptidomimetics” (Molecules, 2019).

By UniProt entry, the sequences of proteins in these tests, tags left out.
UniProt P35372, whole entry: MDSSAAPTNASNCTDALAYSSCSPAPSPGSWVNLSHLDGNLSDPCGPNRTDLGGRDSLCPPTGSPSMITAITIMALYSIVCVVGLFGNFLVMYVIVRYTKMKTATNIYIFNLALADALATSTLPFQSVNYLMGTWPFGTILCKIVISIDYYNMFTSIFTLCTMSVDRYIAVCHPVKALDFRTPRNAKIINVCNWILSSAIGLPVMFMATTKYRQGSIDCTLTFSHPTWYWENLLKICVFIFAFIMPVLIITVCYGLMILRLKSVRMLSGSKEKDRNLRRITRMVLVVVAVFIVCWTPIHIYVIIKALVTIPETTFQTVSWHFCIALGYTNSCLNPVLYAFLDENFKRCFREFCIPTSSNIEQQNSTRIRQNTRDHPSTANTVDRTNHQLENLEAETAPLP
UniProt P41143, whole entry: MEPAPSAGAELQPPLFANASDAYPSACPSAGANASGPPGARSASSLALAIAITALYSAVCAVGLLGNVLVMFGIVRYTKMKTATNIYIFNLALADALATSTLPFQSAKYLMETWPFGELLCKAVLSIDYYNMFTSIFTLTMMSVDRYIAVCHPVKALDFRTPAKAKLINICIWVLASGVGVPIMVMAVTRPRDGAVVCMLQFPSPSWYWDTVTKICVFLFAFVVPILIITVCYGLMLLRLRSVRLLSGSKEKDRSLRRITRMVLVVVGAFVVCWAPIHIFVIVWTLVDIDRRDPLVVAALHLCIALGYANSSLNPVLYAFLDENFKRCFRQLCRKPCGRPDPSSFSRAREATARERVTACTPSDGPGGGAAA

Columns and labels:
human KOR [1] = molecular target: T1, human KOR (Homo sapiens, UniProt P41145); test: [3H]-diprenorphine competitive displacement binding, KOR; conditions: read-out: Ki KOR; membranes from CHO cells expressing human KOR; mean (SEM), n>=3 in duplicate
Experimental: (§1) Each novel compound was evaluated for binding to and stimulation of KOR, MOR, and DOR. Binding affinity (Ki) was determined by competitive displacement of [^3H]-diprenorphine, a non-selective opioid receptor antagonist with similar affinity for each of the three receptors. Potency (EC50) and efficacy, expressed as percent stimulation compared to a standard agonist at each receptor, were determined by a [^35S]-GTPγS binding assay.
(§2) Membranes prepared from transfected Chinese Hamster Ovary cells stably expressing human KOR, human MOR, or human DOR were used for all assays. Cells were grown to confluence at 37 °C in 5% CO2 in 1:1 DMEM:F12 media with 10% v/v fetal bovine serum and 5% v/v penicillin/streptomycin. […] Protein concentration was determined via Pierce BCA protein assay kit using bovine serum albumin as the standard.
(§3) Binding affinities for all test compounds at KOR, MOR, and DOR were determined by competitive displacement of [^3H]-diprenorphine as previously reported. […] Nonspecific binding was determined using the opioid antagonist naloxone (10 µM), and total binding was determined using vehicle in the absence of competitive ligand. […] The radioactivity remaining on the filters was then quantified by liquid scintillation counting after saturation with EcoLume liquid scintillation cocktail in a Microbeta 2450 (Perkin-Elmer, Waltham, MA, USA). […]

human MOR [2] = molecular target: T2, human MOR (Homo sapiens, UniProt P35372); test: [3H]-diprenorphine competitive displacement binding, MOR; conditions: read-out: Ki MOR; membranes from CHO cells expressing human MOR; mean (SEM), n>=3 in duplicate
Experimental: as §1, §2, §3

human DOR [3] = molecular target: T3, human DOR (Homo sapiens, UniProt P41143); test: [3H]-diprenorphine competitive displacement binding, DOR; conditions: read-out: Ki DOR; membranes from CHO cells expressing human DOR; mean (SEM), n>=3 in duplicate
Experimental: as §1, §2, §3

human KOR [4] = molecular target: T1, human KOR; test: [35S]-GTPγS binding stimulation, KOR; assay type: biochemical; conditions: mean (SEM)
Experimental: as §1
(§4) Membranes prepared from transfected Chinese Hamster Ovary cells stably expressing human KOR, human MOR, or human DOR were used for all assays. […] Protein concentration was determined via Pierce BCA protein assay kit using bovine serum albumin as the standard.
(§5) Agonist stimulation of KOR, MOR, and DOR by all test compounds was determined by [^35S]-guanosine 5′-O-[γ-thio]triphosphate ([^35S]-GTPγS) binding assays as previously reported. […] Basal stimulation was determined by incubation in the absence of any ligand. […] The radioactivity remaining on the filters was then quantified by liquid scintillation counting after saturation with EcoLume liquid scintillation cocktail in a Perkin-Elmer Microbeta 2450. […] Percent stimulation and EC50 values were determined via nonlinear regression analysis using GraphPad Prism software from at least three separate assays performed in duplicate. Efficacy is expressed as percent stimulation relative to standard agonists.

human MOR [5] = molecular target: T2, human MOR; test: [35S]-GTPγS binding stimulation, MOR; assay type: biochemical; conditions: mean (SEM), * n = 2
Experimental: as §1, §4, §5

human DOR [6] = molecular target: T3, human DOR; test: [35S]-GTPγS binding stimulation, DOR; assay type: biochemical; conditions: mean (SEM), * n = 2
Experimental: as §1, §4, §5

With `Cc1cc(O)cc(C)c1C[C@H](N)C(=O)N1CCc2ccc(Cc3ccccc3)cc2C1` as the compound, how does the Ki (human KOR [1]) read?
Its Ki is 2.3 nM.

What about the Ki (human MOR [2]) of the same compound?
Its Ki is 5.3 nM.

What about the Ki (human DOR [3]) of the same compound?
The Ki was 2.2 nM.

What about the EC50 (human KOR [4]; read-out: EC50 KOR, CHO-human KOR membranes, * n = 2, dns = does not stimulate, average maximal stimulation <10% at up to 10 µM) of the same compound?
The EC50 was 97 nM.

What about the “% Stimulation KOR” value (human KOR [4]; versus 10 µM standard agonist U69,593, dns = average maximal stimulation <10% at up to 10 µM) of the same compound?
The value was 82 (6) %.

And the EC50 (human MOR [5]; read-out: EC50 MOR, CHO-human MOR membranes, dns = does not stimulate, average maximal stimulation <10% at up to 10 µM)?
The EC50 was 68 nM.

What about the “% Stimulation MOR” value (human MOR [5]; versus 10 µM standard agonist DAMGO, dns = average maximal stimulation <10% at up to 10 µM) of the same compound?
The value was 39 (4) %.

And the EC50 (human DOR [6]; read-out: EC50 DOR, CHO-human DOR membranes, dns = does not stimulate, average maximal stimulation <10% at up to 10 µM)?
Its EC50 is 5.7 nM.

What about the “% Stimulation DOR” value (human DOR [6]; versus 10 µM standard agonist DPDPE, dns = average maximal stimulation <10% at up to 10 µM) of the same compound?
Its value is 20 (3) %.
